Experimental data taken from PMC3103786 (Journal of medicinal chemistry, 2009).

Tested on: nNOS
Experiment: In vitro NOS inhibition, hemoglobin capture assay
Assay type: biochemical
Settings: ratio of Ki values, eNOS over nNOS

SMILES: NC(=O)[C@@H]1C[C@@H](NC(=O)[C@@H](N)CCC/N=C(\N)N[N+](=O)[O-])CN1 [compound 3, L-N^ω-nitroarginine-(4R)-amino-L-proline amide, reference compound]
- eNOS/nNOS: 1100
